Only a part is listed here, and it is no random draw. Calls of active or inactive are those of the source. The call rests on the fitted dose curve; in most records, active means well fitted activation curve with a large enough effect; inconclusive means small, poorly fitted or top-dose-only effect; inactive means no such curve, though single readings can be large or run the other way.

Protein sequences, listed by entry. Tags and fused reporters are not part of them. Lines headed by an entry give the natural chain unless they say otherwise; changes in a name come on top.
UniProt Q8WZA2: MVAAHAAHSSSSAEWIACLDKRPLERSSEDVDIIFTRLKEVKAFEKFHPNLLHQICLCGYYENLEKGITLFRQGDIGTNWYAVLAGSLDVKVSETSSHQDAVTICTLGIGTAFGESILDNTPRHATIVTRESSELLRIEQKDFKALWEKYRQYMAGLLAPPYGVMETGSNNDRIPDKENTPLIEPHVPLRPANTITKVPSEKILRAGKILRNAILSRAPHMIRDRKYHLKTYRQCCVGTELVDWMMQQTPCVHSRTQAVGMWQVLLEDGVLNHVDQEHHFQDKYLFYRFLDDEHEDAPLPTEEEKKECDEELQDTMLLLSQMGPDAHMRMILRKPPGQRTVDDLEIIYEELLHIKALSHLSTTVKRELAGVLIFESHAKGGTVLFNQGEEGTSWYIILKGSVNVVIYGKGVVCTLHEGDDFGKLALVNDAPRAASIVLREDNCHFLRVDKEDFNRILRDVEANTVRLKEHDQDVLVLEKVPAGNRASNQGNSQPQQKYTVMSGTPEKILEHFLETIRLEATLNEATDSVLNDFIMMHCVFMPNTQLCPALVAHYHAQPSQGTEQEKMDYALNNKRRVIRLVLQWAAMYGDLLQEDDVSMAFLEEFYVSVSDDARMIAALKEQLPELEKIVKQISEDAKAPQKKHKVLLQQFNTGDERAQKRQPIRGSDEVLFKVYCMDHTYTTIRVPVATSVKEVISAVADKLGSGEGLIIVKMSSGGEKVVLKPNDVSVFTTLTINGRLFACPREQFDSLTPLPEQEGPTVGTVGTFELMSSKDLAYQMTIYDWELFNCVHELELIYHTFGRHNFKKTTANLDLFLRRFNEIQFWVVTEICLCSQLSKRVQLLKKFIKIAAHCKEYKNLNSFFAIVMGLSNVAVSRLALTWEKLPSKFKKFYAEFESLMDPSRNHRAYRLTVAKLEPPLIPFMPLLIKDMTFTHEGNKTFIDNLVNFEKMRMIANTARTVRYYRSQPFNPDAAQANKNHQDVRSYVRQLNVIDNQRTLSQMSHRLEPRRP

For this assay, the target named is Rap guanine nucleotide exchange factor 4 (Homo sapiens) (UniProt Q8WZA2). The experiment in a line: qHTS for Agonist of cAMP-regulated guanine nucleotide exchange factor 4 (EPAC2): primary screen. Further: nearly all actives have a fitted effect of over 50% in size. To be noted: biochemical qHTS, 100% = 6.5 mM cAMP response; at 154 µM (top of the series). The gist of the method:
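qHTS, titration series. 100 nM EPAC2 / 250 nM Rap1B-BODIPY-GDP / 50 uM GDP; RT; ex 480/em 540 nm, 5-min reads to 30 min. Norm. to 6.5 mM cAMP = activation.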
A general note: Quantitative high-throughput screening tests each substance at several concentrations.
In the case of `Cc1ccc(OCC(=O)OC2CN3CCC2CC3)cc1` (centres undefined), the activation was inactive: -2.2%.

In the case of `Nc1cccc([As](=O)(O)c2ccccc2)c1`, the activation is inactive: 7.06%.

In the case of `Cc1ccc(C(=O)OC2CN3CCC2CC3)cc1` (centres undefined), the activation is inactive: -2.21%.

On to `CC1CCC(C(C)C)C(OP(=O)(Nc2ccccn2)c2ccccc2)C1` (centres undefined), for which the activation was inactive: -12.2%.

With `Cc1nn(-c2ccccc2)c2c1P(=O)(N1CCOCC1)N(C)C(c1ccccc1)=N2` (centres undefined), the activation is inactive: 6.81%.

On to `CCCC1OP(=O)(Nc2ccccc2)OCC1CC` (centres undefined), for which the activation is inactive: 6.39%.

With `O=C(/C=C/c1ccccc1)OC1CN2CCC1CC2` (centres undefined), the activation is inactive: 3.41%.

In the case of `CN(C)C1(CNC(=O)c2ccc(S(C)(=O)=O)cc2)CCCCC1`, the activation is inactive: 4.12%.

Regarding `NC(=O)Nc1ccc([As](=O)(O)O)cc1`, the activation was inactive: 2.53%.

With `CN(C(=O)Cc1ccc(Cl)c(Cl)c1)[C@H]1CC[C@@]2(CCCO2)C[C@@H]1N1CCCC1`, the activation is inactive: -1.48%.

For `CN(C)C(=O)c1cc([N+](=O)[O-])cc2c1-c1c(cc([N+](=O)[O-])cc1[N+](=O)[O-])C2=O`, the activation was inactive: 13%.

As for `O=[N+]([O-])c1ccc2c(c1)nnn2O`, the activation is inactive: 4.32%.

Consider `CCOP1(=S)c2c(C)nn(CCC#N)c2N=C(c2ccc(F)cc2)N1C` (centres undefined), for which the activation was inactive: 7.59%.

On to `CN(C(=O)Cc1ccccc1)[C@@H]1CC[C@]2(CCCO2)C[C@H]1N1CCCC1`, for which the activation is inactive: 5.51%.

As to `N#CCCN(C(=O)COC(=O)C(O)(c1ccccc1)c1ccccc1)c1ccc(F)cc1`, the activation was inactive: 22%.

`CS(=O)(=O)c1cc([N+](=O)[O-])c2no[n+]([O-])c2c1`: the activation was inactive: 1.03%.

As to `O=P(Nc1nccs1)(c1ccccc1)c1nc2ccccc2s1` (centres undefined), the activation was inactive: 7.14%.

In the case of `O=P(Nc1nccs1)(Oc1ccccc1)Oc1ccccc1`, the activation was inactive: 12.7%.

With `CCOP1(=S)c2c(C)nn(CCC#N)c2N=C(c2ccccc2F)N1C` (centres undefined), the activation was inactive: 0.679%.

As to `O=C(O)COc1ccc([As](=O)(O)O)cc1[N+](=O)[O-]`, the activation was inactive: 7.37%.

Regarding `Nc1ccccc1[As](=O)(O)c1ccccc1`, the activation was inactive: -0.319%.

For the compound `CCCOP(=S)(Nc1nc(N)cc(=O)[nH]1)OCCC`, the activation is inactive: 3.43%.

Take `Nc1cccc2c([As](=O)(O)O)cccc12`: the activation was inactive: 7.26%.

As for `Cc1ccc(NCCc2c([N+](=O)[O-])cc([N+](=O)[O-])cc2[N+](=O)[O-])cc1`, the activation is inactive: 1.5%.

For the compound `CCOP(=O)(Nc1cccc2ccccc12)OCC`, the activation was inactive: 9.73%.

In the case of `COc1cc(C2NCCC3(OCCO3)C2(C)C)cc(OC)c1OC` (centres undefined), the activation was inactive: 3.39%.

For the compound `CS(=O)(=O)c1ccc(Cl)c(NC(=O)COC(=O)C(O)(c2ccccc2)c2ccccc2)c1`, the activation is inactive: 4.02%.

As to `COc1cc(C(=O)NCC2(N3CCOCC3)CCCCC2)cc(Cl)c1OC(C)C`, the activation was inactive: 0.639%.

Turning to `O=[As](O)(O)c1cccnc1`, the activation is inactive: 1.7%.

As to `O=C(OC1CN2CCC1CC2)c1ccc(Cl)cc1` (centres undefined), the activation was inactive: 6.01%.

Take `O=[As](O)(c1cccc(O)c1)c1cccc(O)c1`: the activation was inactive: 8.38%.

As to `Cc1cccc(OCC(=O)OC2CN3CCC2CC3)c1` (centres undefined), the activation was inactive: -1.42%.

As to `COc1ccc(N/C(=N/P(=O)(N2CCOCC2)N2CCOCC2)N2CCOCC2)cc1`, the activation is inactive: 0.532%.

In the case of `O=[N+]([O-])c1cc(Oc2ccc([N+](=O)[O-])cc2C(F)(F)F)cc([N+](=O)[O-])c1`, the activation was inactive: 5.01%.

For `Cc1cc(=O)[nH]c(N[N+](=O)[O-])n1`, the activation was inactive: 6.3%.

For the compound `O=C(OC1CN2CCC1CC2)C12CC3CC(CC(C3)C1)C2` (centres undefined), the activation is inactive: 12.2%.

In the case of `Cc1c2c(nc3ccccc13)SC(C(Cl)Cl)C2` (centres undefined), the activation was inactive: 20.1%.

Consider `COc1cc(I)ccc1[As](=O)(O)O`, for which the activation is inactive: 3.69%.

With `COc1ccc2nc(NP(=O)(c3ccccc3)c3ccccc3)sc2c1`, the activation was inactive: -5.07%.

On to `O=P1(N(CCCl)CCCl)OCCCN1CCCl` (centres undefined), for which the activation was inactive: 15.3%.

For `O=P1(N(CCCl)CCCl)Nc2ccccc2N1`, the activation was inactive: 9.55%.

Regarding `CC(C)c1ccc(OP(=O)(Nc2ccccn2)Oc2ccccc2F)cc1` (centres undefined), the activation was inactive: 10.1%.

On to `COC(=O)C1(C)COP(=O)(N2CCCCCC2)OC1` (centres undefined), for which the activation is inactive: 5.15%.

Take `ClCCSc1nnc(-c2cccnc2)o1`: the activation was inactive: 1.79%.

As to `O=[N+]([O-])c1cc([N+](=O)[O-])c(-c2ccn[nH]2)s1`, the activation was inactive: 3.59%.

For the compound `O=C(OC1CN2CCC1CC2)c1cccc2[nH]cnc12` (centres undefined), the activation was inactive: 6.75%.

With `CCN(CC)C(=S)SC(NC=O)C(Cl)(Cl)Cl` (centres undefined), the activation was inactive: -10.2%.

Regarding `CC(C)NC(=O)NP(=O)(Oc1ccccc1)Oc1ccccc1`, the activation is inactive: 2.04%.

Consider `COc1cc(C(=O)NCC2(N3CCOCC3)CCCCC2)ccc1OCC(C)C`, for which the activation is inactive: 1.28%.

With `O=[N+]([O-])c1ccc(-c2cc([N+](=O)[O-])c(O)c([N+](=O)[O-])c2)cc1`, the activation was inactive: 2.75%.

As for `O=[As](O)(c1ccc(O)cc1)c1ccccc1O`, the activation was inactive: -2.85%.

Turning to `C[As](=O)(O)c1cccc(C(=O)O)c1`, the activation is inactive: 8.76%.

For the compound `Cc1ccc2nc3c(c(C)c2c1)CC(C(Cl)Cl)S3` (centres undefined), the activation is inactive: 5.09%.

Consider `Cc1ccc(OP(=O)(Nc2ccc([N+](=O)[O-])cn2)Oc2ccc(C)cc2)cc1`, for which the activation was inactive: 2.23%.

As for `[N-]=[N+]=NC1CCCCC1NC(=O)c1cc([N+](=O)[O-])cc([N+](=O)[O-])c1` (centres undefined), the activation was inactive: 11.4%.

Turning to `CCOC(=O)Nc1cccc([As](=O)(O)O)c1`, the activation is inactive: 0.448%.

Regarding `O=[N+]([O-])c1ccc(Nc2ccc(Oc3ccc([N+](=O)[O-])cc3[N+](=O)[O-])cc2)c([N+](=O)[O-])c1`, the activation was inactive: 8.85%.

For the compound `Cc1cc(SC(NC=O)C(Cl)(Cl)Cl)ncn1` (centres undefined), the activation is inactive: -5.39%.

In the case of `O=P(Nc1ccccn1)(c1cccc2ccccc12)c1cccc2ccccc12`, the activation was inactive: 7.34%.

On to `CC1CCNP(=O)(N(CCCl)CCCl)O1` (centres undefined), for which the activation is inactive: 5.95%.

In the case of `O=C(O)C(O)c1ccc(N(CCCl)CCCl)cc1` (centres undefined), the activation is inactive: 5.13%.

Consider `CCOC(=O)Nc1ccc([As](=O)(O)O)c(O)c1`, for which the activation is inactive: 1.55%.

For `Cc1cc(SC(NC(=O)c2ccccc2)C(Cl)(Cl)Cl)nc(C(C)C)n1` (centres undefined), the activation was inactive: 3.74%.

Turning to `CCCCOc1ccc(C(=O)NCC2(N3CCCCC3)CCCCC2)cc1OC`, the activation is inactive: 4.02%.

On to `COP(=O)(OC)N1CC1c1ccccc1` (centres undefined), for which the activation is inactive: 10%.

Turning to `CCOC(=O)c1ccc(NC(=O)C(C)(CCl)SC)cc1` (centres undefined), the activation is inactive: 12.5%.

Consider `CSc1ccc(Nc2c([N+](=O)[O-])cc([N+](=O)[O-])cc2[N+](=O)[O-])cc1`, for which the activation was inactive: 10.7%.

Regarding `O=C(OC1CN2CCC1CC2)c1cccc([N+](=O)[O-])c1` (centres undefined), the activation is inactive: 9.31%.

For `CCC(C)N(CC(C)C)C(=S)SC(NC(C)=O)C(Cl)(Cl)Cl` (centres undefined), the activation is inactive: 11.4%.

As to `COC(=O)C1(C)COP(=O)(N2CCCC2)OC1` (centres undefined), the activation is inactive: 1.79%.

For the compound `COP1(=S)c2c(C)nn(CCC#N)c2N=C(c2ccc(F)cc2)N1C` (centres undefined), the activation was inactive: 12.4%.

For the compound `O=C(Nc1ccncc1[N+](=O)[O-])c1ccc([N+](=O)[O-])cc1[N+](=O)[O-]`, the activation was inactive: 6.92%.

For `O=C(COc1ccccc1)OC1CN2CCC1CC2` (centres undefined), the activation is inactive: 2.48%.

As for `O=C(O)C(=O)c1ccc(N(CCCl)CCCl)cc1`, the activation is inactive: 10.7%.

The values are drawn from PubChem BioAssay AID720711 (National Center for Advancing Translational Sciences (NCATS), 2013).
